Assay results taken from US20250129135A1, “Multi-Agonist and Use Thereof” (priority 2021, published 2025).

Protein sequences, listed by entry. Tags and fused reporters are not part of them. Residues count along the entry.
UniProt P47871, 26-477: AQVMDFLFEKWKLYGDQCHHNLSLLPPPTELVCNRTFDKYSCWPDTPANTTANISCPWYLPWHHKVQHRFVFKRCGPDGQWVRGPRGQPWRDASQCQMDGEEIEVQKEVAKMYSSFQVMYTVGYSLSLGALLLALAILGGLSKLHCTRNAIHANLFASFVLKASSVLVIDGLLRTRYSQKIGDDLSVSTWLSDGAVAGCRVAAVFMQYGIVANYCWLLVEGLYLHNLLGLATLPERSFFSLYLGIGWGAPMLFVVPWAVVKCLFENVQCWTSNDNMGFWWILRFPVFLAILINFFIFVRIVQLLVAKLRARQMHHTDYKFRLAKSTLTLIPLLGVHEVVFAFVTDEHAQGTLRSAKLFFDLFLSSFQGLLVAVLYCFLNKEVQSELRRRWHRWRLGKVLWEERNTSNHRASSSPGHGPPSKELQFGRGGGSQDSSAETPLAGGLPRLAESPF
UniProt P43220, 24-463: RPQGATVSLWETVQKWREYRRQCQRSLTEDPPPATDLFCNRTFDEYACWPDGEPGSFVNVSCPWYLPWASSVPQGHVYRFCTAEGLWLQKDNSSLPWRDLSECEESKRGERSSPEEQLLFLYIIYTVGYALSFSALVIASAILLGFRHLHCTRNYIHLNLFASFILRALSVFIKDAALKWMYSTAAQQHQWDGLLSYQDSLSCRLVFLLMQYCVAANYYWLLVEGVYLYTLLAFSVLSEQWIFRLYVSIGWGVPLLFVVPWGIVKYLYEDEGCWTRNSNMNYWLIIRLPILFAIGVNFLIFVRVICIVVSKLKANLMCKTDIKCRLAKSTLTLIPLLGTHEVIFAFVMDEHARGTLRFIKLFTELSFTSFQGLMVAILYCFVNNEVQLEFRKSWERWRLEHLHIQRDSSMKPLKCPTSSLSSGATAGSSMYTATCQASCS

Experiments:
Human GIP R = target: T1, Human GIP R (Homo sapiens, UniProt P48546); assay: cAMP (HTRF) activity in CHO cells stably overexpressing GIP receptor; assay type: cell-based; conditions: for Human GIP R Rel. A (Relative Activity): EC50 of human GIP / EC50 of compound
T1 construct: expressed in transfected cells; host or cells: CHO
T1 sequence (P48546 22-466): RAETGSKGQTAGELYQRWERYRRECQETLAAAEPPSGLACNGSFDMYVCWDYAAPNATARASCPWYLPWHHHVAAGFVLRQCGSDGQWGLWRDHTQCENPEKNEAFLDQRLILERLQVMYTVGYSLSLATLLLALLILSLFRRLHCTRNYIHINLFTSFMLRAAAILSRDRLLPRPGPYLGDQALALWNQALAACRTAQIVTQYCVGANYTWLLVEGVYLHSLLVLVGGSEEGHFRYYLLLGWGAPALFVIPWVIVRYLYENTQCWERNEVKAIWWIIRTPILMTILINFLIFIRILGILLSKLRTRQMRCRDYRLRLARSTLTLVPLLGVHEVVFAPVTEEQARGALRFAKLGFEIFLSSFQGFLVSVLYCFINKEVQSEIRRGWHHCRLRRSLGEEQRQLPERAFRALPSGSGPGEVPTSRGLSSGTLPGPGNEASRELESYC
Method: (§1) By measuring the cAMP signal response levels of the aforementioned cells, the agonistic activity of individual compound towards the corresponding receptor was determined. The intracellular cAMP content was measured using reagent kit available from Cisbio Corp. based on HTRF (homogeneous time-resolved fluorescence) technology.
(§2) The cell fluid was transferred to 10 ml of HBSS for resuspension, and centrifuged at 1000 rpm for 5 minutes at room temperature.
(§3) 10 μL cell suspension was added to each well in the 384 well plate. […] Using the ECHO liquid transfer system, 100 nL of the prepared compound solution was added to the corresponding cell suspensions in the 384 well plate, rotated and shaken at 1000 rpm for 1 minute to mix evenly, and then incubated at room temperature for 60 minutes. 10 μL of detection reagent was added to each well after drug incubation was completed, and incubation was performed in the kit at room temperature for 60 minutes. […] GraphPad Prism 5 plotting software was used to create compound concentration response curves and EC50 (nM) values was calculated.

3T3-L1 adipocytes = conditions: for pEC50: read-out: EC50 on mouse 3T3-L1 adipocyte, cAMP, at least 3 independent tests; for Rel. A (Relative Activity) on 3T3-L1 adipocyte: relative to GIP
Method: Mouse 3T3-L1 precursor adipocytes can be induced to differentiate into mature adipocytes. […] After the cells became full and contacted with each other, DMEM differentiation medium containing 20% FBS, 0.5 mM IBMX, 0.4 ug/mL dexamethasone, and 5 ug/mL insulin was used to induce differentiation of 3T3-L1 adipocyte. After 5 days of induction and cultivation, DMEM medium containing […], 4 ug/ml insulin, and 10 uM rosiglitazone was used to continue induction and cultivation for 3 days. Then, DMEM medium containing 10% FBS was used to continue cultivation for 2-3 days to induce mature 3T3-L1 adipocytes.
The cAMP level produced by the compound on 3T3-L1 adipocytes was determined in this experiment. The tested compound solution was diluted step by step according to a concentration gradient of 3 times, to obtain a total of 10 series of concentration solutions. The solutions were added to induced mature 3T3-L1 adipocytes and incubated at room temperature for 60 minutes. 10 μL detection reagent in the kit was added to each well after drug incubation, and incubated at room temperature for another 60 minutes. […] GraphPad Prism 5 plotting software was used to create compound concentration-effect curves and calculation was performed.

Human GCG R = target: T2, Human GCG R (Homo sapiens, UniProt P47871); assay: cAMP (HTRF) activity in HEK-293 cells stably overexpressing human GCG receptor; assay type: cell-based; conditions: for Human GCG R Rel. A (Relative Activity): EC50 of human GCG / EC50 of compound
T2 construct: expressed in transfected cells; host or cells: HEK-293
Method: as §1, §2, §3

[1] = tested on: human primary liver cells; assay type: cell-based; conditions: for pEC50: cAMP, at least 3 independent tests, read-out: EC50 on human primary liver cells; for Rel. A (Relative Activity) on human primary liver cells: relative to GCG
Method: The cAMP levels produced by compounds on human primary liver cells were determined in this experiment. Human primary liver cells were purchased from Lonza (cell product number HUCPG).
Frozen human primary liver cells were placed in a 37° C. constant temperature water bath for rapid thawing and recovery. The cell solution was transferred to 10 ml of HBSS for resuspension, and centrifuged at 1000 rpm for 5 minutes at room temperature.
(§4) 10 μL cell suspension was added to each well in the 384 well plate. […] Using the ECHO liquid transfer system, 100 nL of the prepared compound solution was added to the corresponding cell suspensions in the 384 well plate, rotated and shaken at 1000 rpm for 1 minute to mix evenly, and then incubated at room temperature for 60 minutes. 10 μL of detection reagent was added to each well after drug incubation was completed, and incubation was performed for 60 minutes.

Human GLP-1R = Human GLP-1R (Homo sapiens, UniProt P43220); assay: cAMP (HTRF) activity in HEK-293 cells stably overexpressing human GLP-1 receptor; assay type: cell-based; parameters: expressed in transfected cells; host or cells: HEK-293; conditions: for Human GLP-1R Rel. A (Relative Activity): EC50 of human GLP-1 (7-37) / EC50 of compound
Method: as §1, §2, §3

RIN-m5F cells = assay type: cell-based, rat; conditions: for pEC50: cAMP, at least 3 independent tests, read-out: EC50 on RIN-m5F rat pancreatic islet tumor cells; for Rel. A (Relative Activity) on RIN-m5F: relative to GLP-1(7-37)
Method: This experiment measured the cAMP level produced by the compound on RIN-mF cells.
Frozen […] cells were placed in a 37° C. constant temperature water bath for rapid thawing and recovery. The cell solution was transferred to 10 ml of HBSS for resuspension, and centrifuged at 1000 rpm for 5 minutes at room temperature.
as §4, with “to each wells after drug” for “to each well after drug”

SMILES | pEC50 (Human GIP R) | Human GIP R Rel. A (Relative Activity) (Human GIP R) | pEC50 (3T3-L1 adipocytes) | Rel. A (Relative Activity) on 3T3-L1 adipocyte (3T3-L1 adipocytes) | Human GCG R Rel. A (Relative Activity) (Human GCG R) | pEC50 [1] | Rel. A (Relative Activity) on human primary liver cells [1] | pEC50 (Human GLP-1R) | Human GLP-1R Rel. A (Relative Activity) (Human GLP-1R) | pEC50 (RIN-m5F cells) | Rel. A (Relative Activity) on RIN-m5F (RIN-m5F cells) | pEC50 (Human GCG R)
CC[C@H](C)[C@H](NC(=O)[C@H](Cc1ccccc1)NC(=O)[C@H](C)NC(=O)C(C)(C)NC(=O)[C@H](CCC(N)=O)NC(=O)[C@H](C)NC(=O)[C@H](CCCCNC(=O)COCCOCCNC(=O)COCCOCCNC(=O)CC[C@H](NC(=O)CCCCCCCCCCCCCCCCCCC(=O)O)C(=O)O)NC(=O)[C@H](CCCCN)NC(=O)[C@H](CC(=O)O)NC(=O)[C@H](CC(C)C)NC(=O)[C@](C)(CC(C)C)NC(=O)[C@@H](NC(=O)[C@H](CO)NC(=O)[C@H](Cc1ccc(O)cc1)NC(=O)[C@H](CC(=O)O)NC(=O)[C@H](CO)NC(=O)[C@@H](NC(=O)[C@](C)(Cc1ccccc1)NC(=O)[C@@H](NC(=O)CNC(=O)[C@H](CCC(N)=O)NC(=O)C(C)(C)NC(=O)[C@@H](N)Cc1ccc(O)cc1)[C@@H](C)O)[C@@H](C)O)[C@@H](C)CC)C(=O)N[C@@H](CCC(=O)O)C(=O)N[C@@H](Cc1ccc(O)cc1)C(=O)N[C@@H](CC(C)C)C(=O)N[C@@H](CC(C)C)C(=O)N[C@@H](CCC(=O)O)C(=O)N[C@H](C(=O)NCC(=O)N1CCC[C@H]1C(=O)N[C@@H](CO)C(=O)N[C@@H](CO)C(=O)NCC(=O)N[C@@H](C)C(=O)N1CCC[C@H]1C(=O)N1CCC[C@H]1C(=O)NC1(C(=O)N[C@@H](CO)C(N)=O)CC1)[C@@H](C)O [Compound 1] | 10.82 | 1206.67% | 8.14 | 52.65% | 57.58% | 8.78 | 236.10% | 10.68 | 209.52% | 9.33 | 220.99% | –
CC[C@H](C)[C@H](NC(=O)[C@H](Cc1ccccc1)NC(=O)[C@H](C)NC(=O)C(C)(C)NC(=O)[C@H](CCC(N)=O)NC(=O)[C@H](C)NC(=O)[C@H](CCCCNC(=O)COCCOCCNC(=O)COCCOCCNC(=O)CC[C@H](NC(=O)CCCCCCCCCCCCCCCCCCC(=O)O)C(=O)O)NC(=O)[C@H](CCCCN)NC(=O)[C@H](CC(=O)O)NC(=O)[C@H](CC(C)C)NC(=O)[C@H](Cc1ccccc1)NC(=O)[C@@H](NC(=O)[C@H](CO)NC(=O)[C@H](Cc1ccc(O)cc1)NC(=O)[C@H](CC(=O)O)NC(=O)[C@H](CO)NC(=O)[C@@H](NC(=O)[C@](C)(Cc1ccccc1F)NC(=O)[C@@H](NC(=O)CNC(=O)[C@H](CCC(N)=O)NC(=O)C(C)(C)NC(=O)[C@@H](N)Cc1ccc(O)cc1)[C@@H](C)O)[C@@H](C)O)[C@@H](C)CC)C(=O)N[C@@H](CCC(=O)O)C(=O)N[C@@H](Cc1ccc(O)cc1)C(=O)N[C@@H](CC(C)C)C(=O)N[C@@H](CC(C)C)C(=O)N[C@@H](CCC(=O)O)C(=O)NCC(=O)NCC(=O)N1CCC[C@H]1C(=O)N[C@@H](CO)C(=O)N[C@@H](CO)C(=O)NCC(=O)N[C@@H](C)C(=O)N1CCC[C@H]1C(=O)N1CCC[C@H]1C(=O)NC1(C(=O)N[C@@H](CO)C(N)=O)CC1 [Compound 4] | 10.24 | 317.54% | 8.27 | 70.38% | 80.28% | 9.02 | 406.58% | – | 107.32% | 9.56 | 375.27% | 10.15
CC[C@H](C)[C@H](NC(=O)[C@H](Cc1ccccc1)NC(=O)[C@H](C)NC(=O)C(C)(C)NC(=O)[C@H](CCC(N)=O)NC(=O)[C@H](C)NC(=O)[C@H](CCCCNC(=O)COCCOCCNC(=O)COCCOCCNC(=O)CC[C@H](NC(=O)CCCCCCCCCCCCCCCCCCC(=O)O)C(=O)O)NC(=O)[C@H](CCCCN)NC(=O)[C@H](CC(=O)O)NC(=O)[C@H](CC(C)C)NC(=O)[C@H](Cc1ccccc1)NC(=O)[C@@H](NC(=O)[C@H](CO)NC(=O)[C@H](Cc1ccc(O)cc1)NC(=O)[C@H](CC(=O)O)NC(=O)[C@H](CO)NC(=O)[C@@H](NC(=O)[C@](C)(Cc1ccccc1F)NC(=O)[C@@H](NC(=O)CNC(=O)[C@H](CCC(N)=O)NC(=O)C(C)(C)NC(=O)[C@@H](N)Cc1ccc(O)cc1)[C@@H](C)O)[C@@H](C)O)[C@@H](C)CC)C(=O)N[C@@H](CCC(=O)O)C(=O)N[C@@H](Cc1ccccc1)C(=O)N[C@@H](CC(C)C)C(=O)N[C@@H](CC(C)C)C(=O)N[C@@H](CCC(=O)O)C(=O)NCC(=O)NCC(=O)N1CCC[C@H]1C(=O)N[C@@H](CO)C(=O)N[C@@H](CO)C(=O)NCC(=O)N[C@@H](C)C(=O)N1CCC[C@H]1C(=O)N1CCC[C@H]1C(=O)NC1(C(=O)N[C@@H](CO)C(N)=O)CC1 [Compound 5] | – | 369.39% | 8.43 | 101.47% | 81.43% | 9.19 | 599.54% | 10.66 | 200.00% | 9.03 | 111.09% | –

pEC50: −log10 of the molar value.
